## AlphaSeq binding of Ab-14 light chain variants to a spike HR2 peptide

Reference: Li et al. 2023, doi:10.1038/s41467-023-39022-2. File: FLAb, binding data.

All variants were tested on one target, the spike HR2 peptide PDVDLGDISGINAS (SARS-CoV-2).

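These sequences belong to a second round, designed from the earlier measurements on random variants of the parent. Group labels follow the data file (Ctrl: baseline library sampled from a position-specific scoring matrix, with some repeated check sequences; Rand: our label for a block that the file lists under HC and that is probably the random mutants of the ten best first-round binders; GP: Gaussian process model; HC: hill climbing; Gen: genetic algorithm; Gibbs: Gibbs sampling; a sequence that several methods proposed may carry one label only). The scFvs were displayed on barcoded MATa yeast, the peptide on MATalpha yeast. After mating in shaken culture at 30 °C for 16 h, diploids were selected and their barcode pairs sequenced. Read counts were normalised to the haploid input and turned into Kd by a linear fit to BCL2-family pairs of known affinity, for each replicate. Mating was done six times.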

Ab-14 is the parent antibody, in scFv form: VH, then a (GGGGS)3 linker, then VL. The heavy chain is unchanged in all variants.
VH: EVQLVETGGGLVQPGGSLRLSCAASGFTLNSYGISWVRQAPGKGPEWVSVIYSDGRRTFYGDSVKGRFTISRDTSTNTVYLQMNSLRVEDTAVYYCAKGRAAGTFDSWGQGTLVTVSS
VL: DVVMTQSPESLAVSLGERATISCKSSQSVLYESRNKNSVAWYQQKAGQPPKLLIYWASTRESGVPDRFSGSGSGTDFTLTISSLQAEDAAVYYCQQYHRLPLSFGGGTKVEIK

Each variant is given by its three light chain CDRs, as the data file delimits them; those of the parent are KSSQSVLYESRNKNSVA, WASTRES, QQYHRLPLS.
This list holds designs with at most six substitutions.
The Kd shown is the geometric mean over detected replicates; a lower Kd is a better binder.
An entry "nd" has no value in the source: the pair was not observed among the diploids in any replicate. This suggests poor binding but is not conclusive.

CDR-L1,CDR-L2,CDR-L3,group,Kd,replicates with signal,empty controls
KLSQSVLQQWRNKNSVA,QASHRES,QQYHRLPLS,GP_Gibbs,13 nM,6 of 6,1 of 18
KLMQSVLYESRNKNSVA,HASQRED,QQYHRLPLS,GP_HC,1.3 nM,6 of 6,0 of 18
KSSQSVLYESRNKNSVA,WASTRES,QQYHRLPCS,Ctrl,nd,0 of 6,1 of 18
KVSQSWLYESRNKNSVA,NASKRES,QQYHRLPLS,GP_Gen,610 pM,6 of 6,0 of 18
KSSQSWLYESRNFQSVA,GASTRES,QQYHRLPLS,GP_HC,1.2 nM,6 of 6,0 of 18
KQSQEVLFESRNKNSVA,DASTRES,QQYHRLPLS,Rand,180 pM,6 of 6,0 of 18
KFSQSVLDESRNMNSVA,EASTRET,QQYHRLPLS,Ctrl,800 pM,6 of 6,0 of 18
KCSQQVQYESRNKNSVA,WAHTRES,QQYHCMPLS,Ctrl,nd,0 of 6,0 of 18
KLQQSVEYESRNKNSVA,SASTRES,QQYHRLPLS,GP_Gen,910 pM,6 of 6,2 of 18
KSSQSVLMEDRNKNSVA,WGSTRES,QQYHSLPLS,Ctrl,61 nM,5 of 6,1 of 18
KSSQSWLYESRNKNSVA,WASTRES,QQYLRLPLS,Ctrl,76 nM,1 of 6,0 of 18
KLSQSVPYESRNKNNVA,EASTRES,QQYHRLPLS,GP_Gen,1.6 nM,6 of 6,0 of 18
KILQSVLYESRNKNSVA,HASTREQ,QQYHFLPLS,GP_HC,2.8 nM,6 of 6,0 of 18
KLSQSDLYESRNKNSVA,EASYRES,QQYHRLPLS,GP_Gen,730 pM,6 of 6,0 of 18
KSSQSVLYEERNFSSVA,KASTRES,QQYHRLPLS,Ctrl,100 nM,6 of 6,1 of 18
KACQSVLYESRNKNSVA,WRSTRES,QQYHRLPLS,Ctrl,nd,0 of 6,0 of 18
KMSQSVLYESRNKNSVA,DASTRES,QQYHRLPLS,Ctrl+GP_Gen,810 pM,12 of 12,1 of 36
KSSQSVLYESRNKNSVA,WASTRES,QQYHRLPLY,Ctrl,nd,0 of 6,1 of 18
KLSQSWLYESRNKNSVA,NASTRES,QAYHRLPLS,GP_Gen,1.8 nM,6 of 6,2 of 18
KSSQSVLGESRNKNSVA,WASTRES,QQYHRLPLS,Ctrl,28 nM,1 of 6,0 of 18
KYSQSQGYESRNKWSVA,NASTRES,QQYHRLPLS,GP_Gibbs,1.6 nM,6 of 6,0 of 18
KSSQSVLYESRNKNSVA,WASTRVP,QQYHRLPLS,Ctrl,9.0 nM,6 of 6,1 of 18
KSSQSILYESRNKNSVA,DASTRES,QQYHRLPLS,Ctrl,910 pM,6 of 6,3 of 18
KSSQVVLYENRNKNSVA,GANTRES,QQYHRLPLS,Ctrl,1.5 nM,6 of 6,0 of 18
KVSQSFLYESRNKNAVA,GASTRES,QQYHRLTLS,GP_HC,1.4 nM,6 of 6,0 of 18
KMSQSVLYESRNKNSVA,DGSTRES,QQYHRLPLS,GP_Gen,610 pM,6 of 6,1 of 18
KSSQSVLYESRNKNSVA,WASMRES,QSYHRLPLS,Ctrl,43 nM,6 of 6,0 of 18
KVSQQVLYESRNKNSVA,DASTRES,QQYHRLPLS,GP_Gen,5.6 nM,6 of 6,1 of 18
KSGTGVLYESRNKNSVA,GASTRES,QQYHRLPLS,GP_HC,780 pM,6 of 6,1 of 18
KISTSVYYESYPKNSVA,WASTRES,QQYHRLWLS,Ctrl,380 nM,6 of 6,0 of 18
KFSPSVLYESRTKNSVA,DASTRES,QQYHRLPLS,GP_HC,1.8 nM,6 of 6,1 of 18
KFSQMDLYESRNGNSVA,DASTRSS,QQYHRLPLS,GP_Gibbs,740 pM,6 of 6,1 of 18
KVSMSVLYESRVKNSVA,EAVQRES,QQYHRLPLS,GP_Gibbs,15 nM,6 of 6,0 of 18
KSSQSVLYESRNKNSVA,DCSTRES,QPYHRLPLS,Ctrl,26 nM,6 of 6,1 of 18
KSCQSVLYESRNKNSVA,WASTRES,QQYHRLPPS,Ctrl,nd,0 of 6,0 of 18
KLQQSEDYESRNKNSVA,NASTRLS,QQYHRLPLS,GP_Gen,580 pM,6 of 6,1 of 18
KLPQSVPYESRNKNSVA,NASTRES,QQYHRLPLS,GP_Gen,470 pM,6 of 6,1 of 18
KLQQSYLYESRNKNSVA,NASTRMS,QQYHRLPLS,GP_Gen,8.6 nM,6 of 6,2 of 18
KSSQSFLYESRNKNSVA,WASTRES,QQYHRLPLS,Ctrl,35 nM,6 of 6,1 of 18
KSSQSFLYESRNANSVA,GASTRES,QQYHRLTLS,Rand,410 nM,6 of 6,0 of 18
KSSQSGLYELRNKNSVA,WASTRES,QQYTRLPLS,Ctrl,24 nM,1 of 6,0 of 18
KLSQSMLYESRNKNSVA,NASTRSS,QQYHRLPLS,GP_Gen,540 pM,6 of 6,1 of 18
KSSQSVLYESRNKNSVA,GASTRES,QAYHRLPLS,Ctrl+GP_HC,2.3 nM,12 of 12,1 of 36
KFSSSVLYESRNKNSVA,GASTRES,QQYHRLPFS,Ctrl,7.0 nM,6 of 6,0 of 18
KFSQSVGYESRNKNSVA,DASTRES,QQYHRLPLS,GP_Gen,450 pM,6 of 6,5 of 18
KVSQSELYESRNKNSVA,EASQRES,QQYHRLPLS,GP_Gen,660 pM,6 of 6,1 of 18
KFSQMDLYESRNKNQVA,DASTRSS,QQYHRLPLS,GP_Gibbs,1.4 nM,6 of 6,5 of 18
KSRQSVLYESRNKNSVA,WASTRES,QQYHFLPLS,Ctrl,35 nM,1 of 6,0 of 18
KISQSVSYESRNKNSVA,WASTRES,QQYHRIPLS,Ctrl,95 nM,6 of 6,0 of 18
KLSQSNLYESRNKNSVA,NASTRLM,QQYHRLPLS,GP_Gen,730 pM,6 of 6,2 of 18
KSSTSVPYESRNKNSVA,WASTRES,QQYHRLPLH,Ctrl,nd,0 of 6,0 of 18
KLSQSVLYESRNWNSVA,NASTRCS,QQYHRLPLS,GP_Gen,1.1 nM,6 of 6,1 of 18
KLSQSVLYESRNKNSVA,NASTREQ,QQYHRLPLQ,GP_Gen,930 pM,6 of 6,0 of 18
KLSQSVLYESRNKNSVA,GASTRLS,QQYHRLPLS,GP_Gen,580 pM,6 of 6,0 of 18
KLEQSVLYESRNKNSVA,EASQRES,QQYHRLPLS,GP_Gen,1.4 nM,6 of 6,3 of 18
KLQNSTLYESRQKNSVA,WASTRES,QQYHRLPLS,GP_HC,8.9 nM,6 of 6,2 of 18
KSSWSVLFESRNKNSVA,DASTRSS,QQYHRLPLS,GP_HC,2.0 nM,6 of 6,5 of 18
KSSQSVLYESRNKNSVA,EASTRES,SQYHRLPLS,Ctrl,19 nM,6 of 6,0 of 18
KSSQSWLYESRNKNSVA,GASCREV,QQYHRLPLS,GP_HC,1.7 nM,6 of 6,0 of 18
KVSQSQLYESRNSNSVA,DASNRES,QQYHRLPLS,GP_Gibbs,2.5 nM,6 of 6,1 of 18
KFQQSELYESRNKNSVA,NASTRMS,QQYHRLPLS,GP_Gen,430 pM,6 of 6,2 of 18
KLKQSDLYESRNKNSVA,EASTRES,QQYHRLPLS,GP_Gen,940 pM,6 of 6,0 of 18
KLQQSVLYESRNKNSVA,EASTRES,QQYHRLPLS,GP_Gen,470 pM,6 of 6,2 of 18
HLSDSVLYESRNKNSVA,NASTRES,QQYHRLPLI,GP_HC,1.1 nM,6 of 6,1 of 18
KSEQSVLYESSNKNSVA,WASTRES,QQYHRLPLS,Ctrl,54 nM,6 of 6,0 of 18
KLYQSVMYESRNKNSVA,NASTRES,QQYHRLPLS,GP_Gen,770 pM,6 of 6,1 of 18
KQSDSDLQESRNKNSVA,DASTRES,QQYHRLPLS,GP_HC,2.1 nM,6 of 6,1 of 18
KSSQSWLYESRNKNSVA,GASTRYS,QQYHRLPLS,Rand,31 nM,6 of 6,0 of 18
KSGQSVLYDSLNKNSVA,WASTRES,QQYHRLPLS,Ctrl,80 nM,1 of 6,0 of 18
KVSQSMLYESRNKNNVA,EASTRES,QQYHRLPLS,GP_Gen,430 pM,6 of 6,1 of 18
MSSQSVLFESRNKNSVA,WASTRES,QQYRVLPLS,Ctrl,nd,0 of 6,0 of 18
KVEQGWLDESRNKNSVA,WASTRES,QQYHRLPLS,GP_Gibbs,2.5 nM,6 of 6,2 of 18
KISQSVLYEDRNKNSVA,WASTRES,QQYHRLPLS,Ctrl,7.0 nM,6 of 6,0 of 18
KVSQSWLYESRNKNSVA,NASQRLS,QQYHRLPLS,GP_Gen,1.3 nM,6 of 6,2 of 18
KSSQSVLYESRNKNSVA,WASTRVF,FQYHRLPLS,Ctrl,nd,0 of 6,2 of 18
KSSQSVLYESRNKNSVA,DASTRES,QQYHRWPLS,Ctrl,43 nM,6 of 6,0 of 18
KFSQSVLYESRNKNSVA,EASTRED,QQYHRLPLS,GP_Gen,920 pM,6 of 6,0 of 18
KLSQSFLYESRNKNNVA,NASTRES,QQYHRLPLS,GP_Gen,370 pM,6 of 6,0 of 18
KLSQSFLYEQRNKNSVA,NASQRES,QQYHRLPLS,GP_Gen,750 pM,6 of 6,1 of 18

For reference, 5 entries of the list once more:

CDR-L1	CDR-L2	CDR-L3	group	Kd	replicates with signal	empty controls
KLQQSYLYESRNKNSVA	NASTRMS	QQYHRLPLS	GP_Gen	8.6 nM	6 of 6	2 of 18
KSSWSVLFESRNKNSVA	DASTRSS	QQYHRLPLS	GP_HC	2.0 nM	6 of 6	5 of 18
KLMQSVLYESRNKNSVA	HASQRED	QQYHRLPLS	GP_HC	1.3 nM	6 of 6	0 of 18
KILQSVLYESRNKNSVA	HASTREQ	QQYHFLPLS	GP_HC	2.8 nM	6 of 6	0 of 18
KLSQSVPYESRNKNNVA	EASTRES	QQYHRLPLS	GP_Gen	1.6 nM	6 of 6	0 of 18

Some sequences occur more than once in the pool; their replicates are pooled.
Three control strains display no target. For all light chain designs, 4% of the pairings with them gave a signal, with a median of 430 nM and one signal in twenty below 38 nM, so weak values seen in few replicates may be background. The control count says in how many pairings with the empty strains this scFv gave a signal.
Values of this round are not directly comparable with the first-round values of the same sequences.
The parent sequence was in this pool as ten entries: three were never detected, three once, and four in most replicates, with averages from 2.2 nM to 240 nM.
In the paper, a design with two or fewer of six values counts as a poor binder.